## Binding of CDR-mutated scFvs to a peptide of the spike HR2 region

Source: Engelhart et al. 2022 (doi:10.1038/s41597-022-01779-4), MIT Lincoln Laboratory and A-Alpha Bio; data file from the FLAb repository.

Target peptide (SARS-CoV-2 spike, HR2 region): PDVDLGDISGINAS

The variants keep the light chain, the linker and the frameworks of Ab-14 (scFv order VH, the linker GGGGSGGGGSGGGGS, VL).
VH: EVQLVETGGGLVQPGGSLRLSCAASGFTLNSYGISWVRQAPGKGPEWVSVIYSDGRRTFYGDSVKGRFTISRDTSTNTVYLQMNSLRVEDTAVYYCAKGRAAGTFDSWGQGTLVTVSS
VL: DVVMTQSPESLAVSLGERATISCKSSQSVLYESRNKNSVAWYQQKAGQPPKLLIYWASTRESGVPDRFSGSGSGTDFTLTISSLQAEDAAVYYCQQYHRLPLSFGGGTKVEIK

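The library (AAYL49) carries one to three amino acid substitutions per variant, with no insertions or deletions. Affinity was read by AlphaSeq, a pooled yeast mating assay with surface-displayed partners. Pairs that bind mate more often; barcode pairs of the diploids are counted by sequencing. A regression on co-assayed BCL2-family reference pairs converts the normalised counts of each replicate to an apparent Kd. There are three technical replicates.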

Substitutions are numbered in sequence along the VH above, starting at 1 (not Kabat).
Every variant below is changed at Y60 of the VH (sequential numbering).
Each Kd is an estimate from the mating assay, the geometric mean of the replicates in which the pair was seen; lower is stronger.
"nd" marks a missing value. The strain was present, yet no cells mated with the target were sequenced in any replicate, which points to weak or no binding.

Variant G33A Y60N G99S showed nd (0 of 3 replicates). With S53L F59D Y60Q the result was 7.1 µM (1 of 3 replicates). With S35D T58R Y60W the result was nd (0 of 3 replicates). Variant S35Y Y60F G99P gave nd (0 of 3 replicates). With V50T Y60H A101K the result was nd (0 of 3 replicates). Variant T28Y Y60R V64P showed 990 nM (1 of 3 replicates). Variant T28F D54F Y60C showed nd (0 of 3 replicates). Variant G33P Y60C D62L showed 13 µM (2 of 3 replicates). Variant G26S N30P Y60K showed nd (0 of 3 replicates).

With T58Q Y60M S107Q the result was 98 nM (1 of 3 replicates). Variant L29F G55N Y60T showed 1.7 µM (1 of 3 replicates). Variant T28A I51Y Y60D showed 240 µM (1 of 3 replicates). Variant G26H Y60D T104M showed nd (0 of 3 replicates). Variant N30L V50M Y60H gave 11 µM (1 of 3 replicates). Variant I34H Y60S G61K gave nd (0 of 3 replicates). Variant T58V Y60L A102G showed nd (0 of 3 replicates). Variant I51F Y60E D106R showed 960 nM (2 of 3 replicates). For F27Q Y32S Y60N, the assay gave nd (0 of 3 replicates).

For I34D D54T Y60W, the assay gave 94 µM (1 of 3 replicates). Variant Y60F D62V showed nd (0 of 3 replicates). Variant F27P N30V Y60P gave 75 µM (3 of 3 replicates). Variant G33S G55I Y60I showed 7.5 µM (3 of 3 replicates). Variant Y60Q S63W F105C showed nd (0 of 3 replicates). Variant G33M Y60C V64L showed nd (0 of 3 replicates). Variant Y52P Y60I T104S showed nd (0 of 3 replicates). With Y60F G99S D106C the result was 5.9 µM (1 of 3 replicates). With L29T F59G Y60A the result was nd (0 of 3 replicates).

Variant G33L Y60A S63L gave 270 µM (1 of 3 replicates). Variant D54S Y60W G103I showed nd (0 of 3 replicates). Variant T28W Y60H S63R showed 11 µM (2 of 3 replicates). With S31F Y60W A101C the result was 270 nM (1 of 3 replicates). With Y60S D62C G103V the result was nd (0 of 3 replicates). Variant Y32C Y60E D106S gave nd (0 of 3 replicates). For I34H R56G Y60N, the assay gave 130 µM (2 of 3 replicates). For Y60F S63H V64D, the assay gave nd (0 of 3 replicates). With F59N Y60E the result was nd (0 of 3 replicates).

Variant Y60C K65E showed 1.2 µM (1 of 3 replicates). With I51W Y60F K65W the result was nd (0 of 3 replicates). Variant G33D Y60T gave nd (0 of 3 replicates). With R57Y Y60C the result was nd (0 of 3 replicates). For R57Q Y60A, the assay gave 100 µM (1 of 3 replicates). With N30L Y60F the result was 3.0 µM (3 of 3 replicates). Variant G55M Y60W A102Q showed 40 µM (2 of 3 replicates). For Y60S R100S F105Y, the assay gave nd (0 of 3 replicates). For I51F Y60W D62N, the assay gave nd (0 of 3 replicates).

Variant Y60W A102I F105N showed 5.6 µM (1 of 3 replicates).

For reference, 5 entries of the list once more:

Variant G33S G55I Y60I showed 7.5 µM (3 of 3 replicates).
Variant N30L V50M Y60H showed 11 µM (1 of 3 replicates).
Variant T28Y Y60R V64P showed 990 nM (1 of 3 replicates).
Variant S35Y Y60F G99P showed nd (0 of 3 replicates).
Variant G33D Y60T showed nd (0 of 3 replicates).

Empty control strains, which show no peptide, gave a signal in 15% of pairings with library AAYL49; the median was 11 µM and 95% of these signals were weaker than 680 nM. No background was subtracted.